Data published in patent publication US8809010B2, “Method for prophylactic treatment of alzheimer's disease using inhibitors of glutaminyl cyclase and glutamate cyclases” (Probiodrug AG, priority 2003, dated 2014).

Sequences of proteins named here, by UniProt entry; tags and fusion partners are left off. Residues count along the entry.
UniProt Q16769, 29-361: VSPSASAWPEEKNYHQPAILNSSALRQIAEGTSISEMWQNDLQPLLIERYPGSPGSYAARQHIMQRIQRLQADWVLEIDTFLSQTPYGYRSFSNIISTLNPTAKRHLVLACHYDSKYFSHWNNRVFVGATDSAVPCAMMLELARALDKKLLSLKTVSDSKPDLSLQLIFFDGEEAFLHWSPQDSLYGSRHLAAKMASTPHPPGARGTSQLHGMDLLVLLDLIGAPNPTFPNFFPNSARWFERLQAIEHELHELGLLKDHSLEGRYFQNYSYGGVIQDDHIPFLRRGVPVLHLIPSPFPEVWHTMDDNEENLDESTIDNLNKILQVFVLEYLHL

Assays:
[1] = Aβ aggregation assay with flow cytometry; assay type: physicochemical; settings: for fibril formation: up to 24 h
Protocol: At different times, samples were removed, diluted to 10 nM (based on the initial concentration of the monomer), and analyzed by flow cytometry. […] Fibril formation from monomeric pGlu-Aβ(3-42) was finished already after 2-3 h of incubation, implying an exceptionally high tendency to aggregation (FIG. 24-6A). The results were verified for Aβ(1-42) and pGlu-Aβ(3-42) by another set of experiments using unmodified Aβ peptides and an incubation with a fluorescence-labeled antibody (clone 4G8, Chemicon, Temecula, Calif.) prior to analysis by flow cytometry. As observed with the labeled peptides, fibril formation was virtually finished in the case of pGlu-Aβ(3-42) after 1 h of incubation (FIG. 24-6B). During time, only minor fibril formation was detected for Aβ(1-42). After 24 h, however, fibril concentration appeared to be the same as in case of pGlu-Aβ(3-42) (FIG. 24-6).
Seedless Aβ peptides were diluted to 10 μM (final total peptide concentration) into 50 mM sodium acetate, pH 5.5 containing 2 mM DTT and 100 mM NaCl and incubated at 37° C. without shaking. For fibril formation analysis, the peptides were either used as a mixture of unlabeled peptide (80%) and the respective fluorescence labeled peptide (20%) or as unlabeled peptides alone. […] In order to characterize the progress of the reaction, aliquots were removed at the indicated times, diluted to 10 nM into PBS-T (0.05% Tween-20) and analyzed. For reactions containing unlabeled peptides only, prior to flow cytometry aliquots were diluted to 5 nM into PBS-T and incubated with fluorescence labeled antibody 4G8 (Chemicon, Tececula, Calif.) at 1 nM for 1 h at 4° C.
To ensure identical conditions for all measurements, all samples were measured in TruCount Tubes (BD Biosciences) and analysis was stopped after 20,000 beads were counted. Counts were transferred into ANSMS for evaluation (Alzheimer normalized specific measurement signal: event counts from flow cytometry analysis normalized to the size of the particles, i.e. to a mean size of FS Log=250). Since there is a correlation between particle size and intensity of the fluorescence signal, it was possible to discriminate between smaller oligomeric and larger fibrillar structures in a single experiment (FIG. 25-2).

human QC = target: T1, human QC (Homo sapiens, UniProt Q16769); test: Continuous spectrophotometric QC assay (glutamate dehydrogenase coupled), substrate kinetics; assay type: biochemical; settings: for substrate inhibition;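 also: initial rates read on a microplate reader at 30 °C, with enzyme activity quantified against an ammonia calibration curve under the same assay conditions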
T1 construct: The cDNA of the mature QC starting with codon 38 was fused in frame with the plasmid encoded 6× histidine tag; 6xHis; made in house; host or cells: Pichia pastoris X33 (pPICZαB, secreted); also E. coli M15 (pQE-31)

Molecule	time until fibril formation finished ([1]; 10 μM peptide, 20% Alexa Fluor 488 labeled) [h]	fibril formation ([1]; 10 μM peptide)	time until fibril formation virtually finished ([1]; unmodified peptide, labeled 4G8 antibody) [h]	Ki* (mM) (human QC)
pGlu-Aβ(3-42): N-terminally pyroglutamate-modified Aβ(3-42)	2 to 3	fibril formation already after a few hours	1	
Aβ(3-42): SEQ ID NO: 22		fibril formation already after a few hours		
NC(=O)CC[C@H](N)C(=O)NCC(=O)O [H-Gln-Gly-OH]				n.i.
